We go through five compounds from patent publication US20130122541A1, “MICROORGANISM PRODUCTION OF HIGH-VALUE CHEMICAL PRODUCTS, AND RELATED COMPOSITIONS, METHODS AND SYSTEMS” (The Regents of the University of Colorado, priority 2010, published 2013).

Data set [1] deals with E. coli. The class given is cell-based. The settings on record: increase of 3-HP MIC over BW25113 in M9 without supplements; M9 media with the named supplement(s), aerobic. On the procedure:
For MIC evaluations, the final results are expressed in chemical agent concentrations determined by analysis of the stock solution by HPLC (i.e., see Subsection IIIb).
The minimum inhibitory concentration (MIC) was determined aerobically in a 96 well-plate format. […] Media supplements were added according to levels reported in the Supplements Table, where specified. Overnight cultures of strains were grown in triplicate in 5 mL LB (with antibiotic where appropriate). A 1% (v/v) inoculum was introduced into a 5 ml culture of M9 minimal media.

The nature of data set [2]: Reactive extraction of 3-HP from clarified fermentation broth into tertiary amine non-polar phase with co-solvents. The data set is classed as physicochemical. How it is done:
A fermentation broth obtained from a 10-liter fermentor at the conclusion of a fermentation experiment was heated to 60° C. for one hour as a microorganism kill step, then adjusted to approximately 100 grams per liter of 3-HP (produced by the method described in Common Methods Section, Subsection IIIa), and pH-adjusted to approximately 7.0 with ammonium sulfate. Calcium chloride at 1 M was added as a flocculent to reach a final concentration of about 8.2 g/L. Thereafter the pH was adjusted to a pH of approximately 2.0 using sulfuric acid. Thereafter a volume of this modified fermentation broth was centrifuged at approximately 3,200 g for 5 minutes to yield a clarified broth and a pellet, which was discarded.
Portions of the clarified broth were then subjected to reactive extraction by mixing with a tertiary amine non-polar phase comprising various co-solvents. After mixing, aqueous and amine non-polar phases were allowed to separate, and the amine non-polar phase was removed from the aqueous phase, which was subjected to analysis for 3-HP concentration by HPLC (see method in Common Methods Section). Amines included Alamine 336, described above, and tripentylamine. Table 40 provides a summary of the single pass extraction efficiency into the respective amine non-polar phase solutions, each respectively calculated based on the difference between the starting 3-HP in the portion and the 3-HP in the raffinate (aqueous phase after extraction).

Take `NCCCCCN` [Cadaverine (C)]: the “% Increase Over Control” value in data set [1] is 27%. With `NCCCCN` [Putrescine (C)], the “% Increase Over Control” value in data set [1] came to 9%. Still for that read-out and setting: under `NCCCCNCCCN` [Spermidine (C)] stands 45%. For the compound `N[C@@H](CCO)C(=O)O` [Homoserine (B)], in data set [1], the “% Increase Over Control” value came out at 27%.

Consider `O=C(O)CCO` [3-HP, 3-hydroxypropionic acid], for which the “% 3HP extracted (Total; single pass extraction efficiency)” value in data set [2] (sample 1: Alamine 336 with Butanol) is reported as 60.60%; in data set [2] (sample 2: Tripentylamine with Butanol), 58.39%; in data set [2] (sample 3: Tripentylamine with p-Xylene) it was 23.91%; in data set [2] (sample 4: Tripentylamine with Methyl ethyl ketone), 67.47%; in data set [2] (sample 5: Tripentylamine with Methyl tert-butyl ether), 37.53%.
